According to patent publication US20250306034A1, “Detection of Liver Disease” (Owlstone Medical Limited, priority 2022, published 2025):

Experiment: Blood levels of bioproducts in NASH rat model (CDHFD vs normal diet)
Conditions: after oral benzyl alcohol 208 mg/Kg

O=C(O)c1ccccc1 [benzoic acid]
time after which blood concentrations reached undetectable levels in all the rats: 480 min
concentration of benzoic acid in blood, CDHFD rats compared to ND rats (ten weeks of diet): increased concentration
